Measurements from PubChem BioAssay AID588819 (The Scripps Research Institute Molecular Screening Center, 2011).
The entries are a selection whose mix differs from that of the whole data set. Some of these compounds have results that are not shown, active ones among them. Calls of active or inactive are those of the source. Cut-off read from the data, not from the text of the source: active = activation above about 19% (passing the limit was not always enough); inactive = the rest.

By UniProt entry, the sequences of proteins in these tests, tags left out.
UniProt P11229, whole entry: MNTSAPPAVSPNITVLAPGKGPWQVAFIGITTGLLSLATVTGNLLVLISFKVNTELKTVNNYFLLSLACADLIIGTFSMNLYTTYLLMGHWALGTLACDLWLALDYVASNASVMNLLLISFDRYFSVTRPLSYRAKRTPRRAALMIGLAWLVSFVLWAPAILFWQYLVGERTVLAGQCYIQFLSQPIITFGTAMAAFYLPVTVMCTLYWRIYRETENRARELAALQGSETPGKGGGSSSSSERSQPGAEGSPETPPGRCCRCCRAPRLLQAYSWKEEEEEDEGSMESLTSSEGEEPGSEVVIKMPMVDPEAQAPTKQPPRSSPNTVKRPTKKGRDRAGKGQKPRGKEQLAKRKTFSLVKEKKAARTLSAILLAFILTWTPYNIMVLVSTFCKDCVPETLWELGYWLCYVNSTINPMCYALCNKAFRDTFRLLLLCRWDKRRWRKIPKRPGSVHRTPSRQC

The molecules below were run against Muscarinic acetylcholine receptor M1 (Homo sapiens) (UniProt P11229) (assay: human M1 muscarinic receptor positive allosteric modulators, primary screen, CHO-K1 cells, Fluo-8 calcium fluorescence, 1536-well (AID 588819)). Conditions: CHO-K1 hM1, Fluo-8 calcium fluorescence, ACh EC20; at 3 µM; stronger effect = higher value; 0% = ACh EC20, 100% = maximal ACh.

| SMILES | activation |
| --- | --- |
| CN(C)c1cccc(C(=O)NCC2(N(C)C)CCCCC2)c1 | inactive: 2.43% |
| CC(C)Oc1ccc(C(=O)NCC2(N(C)C)CCCCC2)cc1 | inactive: 1.2% |
| O=C(OCCN1CCCC1)C(O)(c1ccccc1)c1ccccc1 | inactive: -30.1% |
| COc1ccc(Br)c(C(=O)NCC2(N3CCCCC3)CCCCC2)c1 | inactive: 2.58% |
| C=C(C)C#CC(O)(C(=O)OC1CCN(C)CC1)c1ccccc1 (stereo not drawn) | inactive: -29.7% |
| O=C(OC1CN2CCC1CC2)C(CO)(c1ccccc1)c1ccccc1 (stereo not drawn) | inactive: -22.6% |
| O=C(NCC1(N2CCCCC2)CCCCC1)c1cccc(Cl)c1 | inactive: 19.1% |
| COc1cccc(C(=O)NCC2(N3CCCCC3)CCCCC2)c1 | inactive: 6.61% |
| COc1ccc(Cl)cc1C(=O)NCC1(N(C)C)CCCCC1 | inactive: -3.09% |
| COc1cc(C(=O)NCC2(N(C)C)CCCCC2)c([N+](=O)[O-])cc1OC | inactive: 14.7% |
| CN(C)C1(CNC(=O)c2ccc(Br)cc2)CCCCC1 | inactive: 6.27% |
| Cc1cc(C(=O)NCC2(N3CCCCC3)CCCCC2)ccc1[N+](=O)[O-] | inactive: 7.26% |
| O=C(NCC1(N2CCCCC2)CCCCC1)c1cccc(Br)c1 | inactive: 12.1% |
| COc1ccc(C(=O)NCC2(N(C)C)CCCCC2)cc1 | inactive: 2.76% |
| C=CCN1CCN(CCOC(=O)C(O)(c2ccccc2)c2ccccc2)CC1 | inactive: -38.1% |
| O=C(NCC1(N2CCCCC2)CCCCC1)c1cc(F)c(F)cc1Cl | inactive: -2.89% |
| Cc1ccccc1C(=O)NCC1(N2CCCCC2)CCCCC1 | inactive: 8.87% |
| CN(C)c1ccc(C(=O)NCC2(N(C)C)CCCCC2)cc1 | inactive: 11.9% |
| Cc1ccc(C(=O)NCC2(N3CCCCC3)CCCCC2)cc1 | inactive: 7.5% |
| CC(C)N1C(=O)CC2(CCN(CCOC(=O)C(O)(c3ccccc3)c3ccccc3)CC2)C1=O | inactive: 1.87% |
| CCN(CC)CC(C)C(C)OC(=O)C(O)(c1ccccc1)c1ccccc1 (stereo not drawn) | inactive: -21.4% |
| COc1cc(SC)ccc1C(=O)NCC1(N(C)C)CCCCC1 | inactive: 11.6% |
| O=C(NCC1(N2CCCCC2)CCCCC1)c1cc([N+](=O)[O-])ccc1Cl | inactive: -0.67% |
